# Screening results: PubChem, several laboratories
# MC4R antag cAMP: human MC4R antagonism in cAMP assay | 0.48% of 360,000 active | AID 540295 | MC4R-expressing cells, MTII-stimulated cAMP, LANCE TR-FRET | inhibition, % at 6.5 µM | P32245;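 active = inhibition above its plate's cutoff, the mean of tested wells on that plate plus 3 SD, cut at about 29% in these data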;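 note: 0% = Melanotan II alone and 100% = Melanotan II plus saturating MCL0020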
#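 Material: U2OS-MC4R stable cell line | Reagent: Melanotan II challenge after compound preincubation | Doses: One concentration, 6.5 µM nominal | Incubation: 30-min compound preincubation, 1-h Melanotan II challenge, 1-h detection, room temperature | Signal: TR-FRET cAMP assay | Replicates: One well per compound, no replicates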
# HDAC3 inhib: blocks human histone deacetylase 3 | O15379 | recombinant HDAC3, fluorogenic peptide/trypsin coupled, fluorescence | inhibition, % at 8.3 µM | 0.15% of 320,000 active; in the data active = inhibition above about 26%, passing the limit was not always enough; inconclusive = no clear call, values can overlap the other calls
# Yeast UUG start: yeast start codon fidelity modulation; activity score, % at 18.7 µM; actives 0.13% (n = 350,000); S. cerevisiae UUG-firefly luciferase reporter, luminescence/redox ratio; AID 602363;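 active means replicate mean at a twofold rise or more, about +100% in these data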;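 further: firefly luciferase made from a UUG start codon reports start codon fidelity; reporter light over untreated wells divided by growth signal over untreated wells; some hits fall short of that in this replicate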
# MC4R barr agon: human MC4R agonism via beta-arrestin. P32245. U2OS MC4R beta-arrestin complementation, luminescence; percent of melanotan II response, DMSO zero. activation, % at 8.9 µM. 0.98% of 360,000 active. AID 540308;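 active = activation above a per-plate cutoff, the mean activation of sample wells on that plate plus 3 SD, cut at about 8% in these data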
# ALR inh: inhibitors of human ALR sulfhydryl oxidase, primary screen, biochemical, H2O2 detection, HRP-luminol luminescence, single point. 290,000 compounds, 3.8% hits. inhibition, % (concentration not given with the values). purified ALR, DTT oxidation. AID 485317, 2010;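 active means mean and each replicate at 75% or more; inconclusive means only one of the two met; inactive means neither met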;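 further: stock transfer was 7.5 nL into about 7.5 µL; 0% = neutral wells and 100% = wells with inactivated enzyme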
# NALP1 inh: inhibitors of NALP1 inflammasome in yeast; S. cerevisiae NALP1/ASC/caspase-1 growth, X-gal OD620, 72 h; AID 2071; 0.61% of 280,000 active; inhibition, % at 10 µM; in the data active = inhibition mostly above about 24%, no sharp cut-off; inactive = mostly below about 32%
# * hit, by the source's call; ? = inconclusive; . = no result given. Most compounds without a hit are left out; they make up all but 4.2% or so of the library.
# The opening 4 entries, ahead of the listing:
SMILES,MC4R antag cAMP,HDAC3 inhib,Yeast UUG start,MC4R barr agon,ALR inh,NALP1 inh
O=C(O)c1ccc(S(=O)(=O)Nc2ccc(O)c(Sc3nc4ccccc4s3)c2)cc1,-7,-4,-4,-1,100*,-6
NS(=O)(=O)c1ccc(Sc2nc3ccccc3s2)c([N+](=O)[O-])c1,3,7,-3,0,98*,.
COCC#Cc1ccc2c(c1)O[C@@H](CN(C)C(=O)CC1CC1)[C@@H](C)CN([C@@H](C)CO)S2(=O)=O,.,.,8,.,.,.
Cc1nn2c(-c3cccc(NC(=O)CSc4nc5ccccc5o4)c3)nnc2c2ccccc12,-1,-5,-19,5,99*,38

# Main list (from the top)
SMILES,MC4R antag cAMP,HDAC3 inhib,Yeast UUG start,MC4R barr agon,ALR inh,NALP1 inh
O=C(O)c1ccc(S(=O)(=O)Nc2ccc(O)c(Sc3nc4ccccc4s3)c2)cc1,-7,-4,-4,-1,100*,-6
NS(=O)(=O)c1ccc(Sc2nc3ccccc3s2)c([N+](=O)[O-])c1,3,7,-3,0,98*,.
COCC#Cc1ccc2c(c1)O[C@@H](CN(C)C(=O)CC1CC1)[C@@H](C)CN([C@@H](C)CO)S2(=O)=O,.,.,8,.,.,.
Cc1nn2c(-c3cccc(NC(=O)CSc4nc5ccccc5o4)c3)nnc2c2ccccc12,-1,-5,-19,5,99*,38
Cc1cccc(NC(=O)CSc2nc3ccccc3o2)c1,-2,-4,-16,-2,-13,36
O=C(C1=C[C@@H](c2csc3ccccc23)C[C@@H](OCCCCO)O1)N1CCCCCCC1,.,.,-4,.,.,.
O=C(CCNc1ccc(F)cc1)c1cccc([N+](=O)[O-])c1,4,-14,-11,1,17,41
O=C(CCNc1ccccc1)c1cccc([N+](=O)[O-])c1,20,4,.,0,98*,19
COc1ccc(NC2CC(=O)N(c3cccc(C)c3)C2=O)cc1 (stereo unspecified),8,11,-10,0,-6,19
COc1ccc(NC2CC(=O)N(c3cccc([N+](=O)[O-])c3)C2=O)cc1 (stereo unspecified),10,11,.,8,89*,18
Cc1noc(C)c1S(=O)(=O)N(C)C[C@@H]1Oc2ccc(NC(=O)NC3CCCCC3)cc2CC(=O)N([C@H](C)CO)C[C@@H]1C,.,.,5,.,.,.
Nc1ccc2nc(-c3ccc(-c4nc5ccc(N)cc5[nH]4)cc3)[nH]c2c1,.,-4,.,.,99*,5
Nc1ccc2nc(-c3cccc(-c4nc5ccc(N)cc5[nH]4)n3)[nH]c2c1,-10,?,-16,1,99*,-11
Nc1cccc(-c2nc3ccccc3[nH]2)c1,9,-86,-14,0,-113,-4
Cc1ccc2nc(-c3cccc(N)c3)[nH]c2c1,2,-89,-34,-2,99*,-65
O=C(C[C@H]1CC[C@@H](NS(=O)(=O)c2cccc(F)c2)[C@@H](CO)O1)NCc1ccc2c(c1)OCO2,.,.,-1,.,.,.
COc1cc(/C=N/NC(=O)CCNC(=O)c2ccccc2Cl)ccc1O,1,6,.,0,99*,-19
O=C(CNC(=O)c1ccco1)N/N=C/c1cc(Br)ccc1O,13,-6,-19,-1,.,7
COc1cc(/C=N/NC(=O)CNC(=O)c2ccco2)ccc1O,2,1,-9,-2,99*,-22
COc1cc(C(=O)N/N=C/c2ccc(OC(=O)c3ccccc3Cl)c(OC)c2)ccc1O,6,6,-2,11*,14,15
O=C(CCNC(=O)c1ccccc1Cl)N/N=C\c1ccc(O)cc1,3,.,-12,1,.,.
COc1cc(/C=N/Nc2ccccc2C(F)(F)F)ccc1O,7,3,.,0,12,-3
COc1cc(/C=N/Nc2ccccc2)ccc1O,8,0,1,0,99*,2
Cc1ccccc1-c1ccc2c(c1)O[C@H](CN(C)C(=O)c1ccccn1)[C@H](C)CN([C@@H](C)CO)S2(=O)=O,.,.,9,.,.,.
COc1cc(/C=N/Nc2ccc(Cl)c(C(=O)O)c2)ccc1OC(=O)c1ccccc1F,-7,6,-8,0,99*,-3

# Reprinted from the part before: 2 compounds, followed by the next part.
SMILES,MC4R antag cAMP,HDAC3 inhib,Yeast UUG start,MC4R barr agon,ALR inh,NALP1 inh
Cc1ccccc1-c1ccc2c(c1)O[C@H](CN(C)C(=O)c1ccccn1)[C@H](C)CN([C@@H](C)CO)S2(=O)=O,.,.,9,.,.,.
COc1cc(/C=N/Nc2ccc(Cl)c(C(=O)O)c2)ccc1OC(=O)c1ccccc1F,-7,6,-8,0,99*,-3
COc1cc(/C=N/Nc2ccc(Cl)c(C(=O)O)c2)ccc1OC(=O)c1ccc(F)cc1,5,3,12,0,72,17
COc1cc(/C=N/Nc2nncn2/N=C/c2ccc(O)c(OC)c2)ccc1O,-8,5,.,0,99*,-38
O=C(N/N=C/c1cccc(Oc2ccccc2)c1)c1ccncc1,14,-11,.,-2,-2,15
COc1ccc(OC)c(/C=N/Nc2nncn2/N=C/c2cc(OC)ccc2OC)c1,-9,-9,-22,-3,-3,24
COc1cc(C(=O)N/N=C/c2cccc(Oc3ccccc3)c2)ccc1O,-4,-11,-7,-2,85*,9
COc1cc(/C=N/NC(=O)CCc2ccccc2)ccc1O,-6,2,-14,-2,99*,0
COc1cc(/C=N/NC(=O)CCC(=O)Nc2ccc(F)cc2)ccc1O,19,2,-14,0,38,-11
COc1cc(/C=N/NC(=O)c2ccccc2O)ccc1OC(=O)CC1SC(=O)NC1=O (stereo unspecified),-4,-2,.,3,88*,20
CN1C(=O)c2cc(NC(=O)C3CCOCC3)ccc2OC[C@@H]2O[C@H](CC(=O)O)CC[C@@H]21,.,.,-9,.,.,.
CCCCc1ccc(C2C(C#N)=C(N)SC(N)=C2C#N)s1,.,6,.,.,98*,16
CC(C)NC(=O)N1CCCCN2[C@H](CO)[C@@H](c3ccc(C#Cc4ccccc4F)cc3)[C@H]2C1,.,.,-1,.,.,.
CC(=O)N1CCC2(CC1)NC(=O)N(c1ccccc1)N2,8,-2,.,-1,98*,-1
C[C@@H]1CN([C@H](C)CO)S(=O)(=O)c2ccc(-c3cncnc3)cc2O[C@@H]1CN(C)C(=O)C1CCC1,.,.,-10,.,.,.
Cc1ccc(-c2cn3c(n2)SCC3)cc1,4,3,.,-2,98*,13
CCc1ccc(-c2cn3c(n2)SCC3)cc1,2,14,-24,0,-2,6
Oc1ccc(/C=C/c2cc(O)cc(O)c2)cc1,-4,-7,-74,-1,79*,18
COc1cc(O)cc(/C=C/c2ccccc2)c1,-7,.,-25,2,.,.
CS(=O)(=O)C1=NSC2=NC(=O)/C(=C\c3ccc(-c4ccccc4)o3)C(=N)N21,.,7,.,.,97*,30
Cc1ccc(-n2cccc2/C=C2/C(=N)N3C(=NC2=O)SN=C3S(C)(=O)=O)cc1,5,5,.,-1,98*,-13
Cc1cc(C)cc(-n2cccc2/C=C2/C(=N)N3C(=NC2=O)SN=C3S(C)(=O)=O)c1,9,4,.,0,88*,15
O=C(Nc1ccccc1)N1C[C@@H]2[C@H](c3ccccc31)[C@@H](CO)N2C(=O)c1cccnc1,.,.,-15,.,.,.
N#Cc1c(NC(=O)CSc2ccccn2)oc(-c2ccccc2)c1-c1ccccc1,4,.,-8,-1,.,17
Cc1cnc(C(=O)OCC(=O)Nc2oc(-c3ccccc3)c(-c3ccccc3)c2C#N)cn1,7,-1,-15,0,97*,4
